AlphaSeq binding of Ab-14 light chain variants to a spike HR2 peptide

Antigen: PDVDLGDISGINAS, a 14-residue peptide of the SARS-CoV-2 spike HR2 region.

Parent: Ab-14, a human scFv built as VH, the linker GGGGSGGGGSGGGGS, VL. Only the CDRs of the light chain vary.
VH: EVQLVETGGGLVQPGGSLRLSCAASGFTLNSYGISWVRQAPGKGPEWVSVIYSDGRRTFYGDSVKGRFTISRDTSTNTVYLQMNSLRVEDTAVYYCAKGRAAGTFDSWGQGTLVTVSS
VL: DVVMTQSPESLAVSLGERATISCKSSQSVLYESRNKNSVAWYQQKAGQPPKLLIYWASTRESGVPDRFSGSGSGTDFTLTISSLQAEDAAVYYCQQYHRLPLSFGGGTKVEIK

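Phage display of a naive human antibody library on the peptide gave the parent. The variants were designed computationally from a first round of random CDR variants and then made and measured. Group labels follow the data file (En: ensemble of fine-tuned language models; GP: Gaussian process model; HC: hill climbing; Gen: genetic algorithm; Gibbs: Gibbs sampling; a sequence that several methods proposed may carry one label only). In AlphaSeq, yeast of one mating type display the scFv and yeast of the other type display the target. Mating (16 h, 30 °C) was followed by selection of diploids and sequencing of their barcodes. Read counts were normalised to the haploid input and turned into Kd by a linear fit to BCL2-family pairs of known affinity, for each replicate. There are six technical replicates.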

Variants are written as CDR1, CDR2 and CDR3 of the light chain (limits as in the source). Parent: KSSQSVLYESRNKNSVA, WASTRES, QQYHRLPLS. This list holds designs with more than six substitutions. Each Kd is an estimate from the mating assay, the geometric mean of the replicates in which the pair was seen; lower is stronger. "nd" marks a missing value. The strain was present, yet no cells mated with the target were sequenced in any replicate, which points to weak or no binding.

MMSQVTGLGQRHRNNVA, QTETREE, QQYDRLPLV [En_Gen]: 17 nM (6 of 6 replicates; controls 1 of 18).
KLSVSTSYLSVNKNSIA, EMSTRES, QQYDRLPLS [En_HC]: 7.4 nM (6 of 6 replicates; controls 3 of 18).
KLMCSQEYESRNTNSVA, GASTRES, QQYHRLPLS [GP_Gibbs]: 870 pM (6 of 6 replicates; controls 0 of 18).
SLGLVTMLEEYARNNVA, NNSTRED, QQYDRLPLS [En_Gen]: 190 nM (3 of 6 replicates; controls 0 of 18).
KVDMSQLYESRNKNSVA, NASLRMS, QQYHRLPLS [GP_Gibbs]: 1.0 nM (6 of 6 replicates; controls 1 of 18).
QLYEMNYELSGKTHSVA, DNSTRGD, QQYFRLPLD [En_Gen]: 49 nM (6 of 6 replicates; controls 2 of 18).
SLELFSLEGDKPVNAVA, DEVVKTA, QQYFRLPLH [En_Gibbs]: 30 nM (6 of 6 replicates; controls 0 of 18).
QLLMATMQGSYNRNSVA, HAETRED, QSYHRLPLS [En_HC]: 6.0 nM (6 of 6 replicates; controls 0 of 18).
KCEQSWLYESRVKNNVA, NATQRES, QQYHRLPLS [GP_Gibbs]: 1.0 nM (6 of 6 replicates; controls 1 of 18).
KLSQSVLYEQQNKNQVA, ESSTRMS, QQYHRLPLS [GP_Gibbs]: 19 nM (5 of 6 replicates; controls 0 of 18).
KLAQGIYEPWRKSHNIA, EASHVCD, QQYERLPLE [En_Gibbs]: 1.2 nM (6 of 6 replicates; controls 0 of 18).
HISSMDMHDGGIMHSVA, DTKITER, QQYMRLPLS [En_Gibbs]: 3.8 nM (6 of 6 replicates; controls 1 of 18).
HLGLATMVESSVRNSVA, NNSTREE, QQYDRLPLS [En_Gen]: 47 nM (2 of 6 replicates; controls 1 of 18).
KQQQGELYMSRNKNSVA, DASQRES, QQYHRLPLS [GP_Gibbs]: 660 pM (6 of 6 replicates; controls 0 of 18).
ALSWSDGGESRNPNSVA, HASTRES, QQYHRLPLS [GP_Gibbs]: 750 pM (6 of 6 replicates; controls 0 of 18).
RMEWHNSGLLEAKNSVA, GVEHRAN, QQYMRLPLE [En_Gibbs]: 880 pM (6 of 6 replicates; controls 0 of 18).
KISQMVRVGATHNNSIA, EEATRAK, QQYHRLPLS [En_Gen]: 5.5 nM (6 of 6 replicates; controls 1 of 18).
LLSGMVEEQETRQQNIA, EVEFRCM, QQYSRLPLS [En_Gibbs]: nd (0 of 6 replicates; controls 0 of 18).
KLSQVTHSESRNKNSIA, EMVTREV, QQYDRLPLT [En_HC]: 4.5 nM (6 of 6 replicates; controls 1 of 18).
NVRDSLGYVQNVGSAVA, EASQVED, QQYYTLPLT [En_Gibbs]: 19 nM (6 of 6 replicates; controls 1 of 18).
KFSQGGPYEQRNKNSVA, NASQRES, QQYHRLPLS [GP_Gibbs]: 800 pM (6 of 6 replicates; controls 5 of 18).
MVTQMAMTGMMSKRSVA, NAETRET, QQYHHLPLI [En_Gen]: 6.8 nM (6 of 6 replicates; controls 1 of 18).
KLSQSDGYEMRNKNSVA, EAQTREQ, QQYHRLPLS [GP_Gibbs]: 650 pM (6 of 6 replicates; controls 1 of 18).
KLLQTVMNGRRNRNNVA, HMTTRED, QQYFRLPLS [En_HC]: 140 nM (1 of 6 replicates; controls 0 of 18).
TLMHHQDRYDVWKESIA, EASIRAS, QQYQRLPLA [En_Gibbs]: 65 nM (6 of 6 replicates; controls 1 of 18).
KLDPSDLGEERNKNSVA, QASQREI, QQYHRLPLS [GP_Gibbs]: 670 pM (6 of 6 replicates; controls 0 of 18).
KLMWSMQYESRNKNSVA, GASYRES, QQYHRLPLS [GP_Gibbs]: 2.7 nM (6 of 6 replicates; controls 3 of 18).
KLSQEMEYESRNKNSVA, HASERES, QDYHRLPLQ [GP_Gibbs]: 470 pM (6 of 6 replicates; controls 0 of 18).
HMSMLTLSGMRHTNSVA, QMTTRVN, QQYDRLPLM [En_Gen]: 4.9 nM (6 of 6 replicates; controls 0 of 18).
KISQMYRYEQQNSDSIA, EVTTRLN, QSYHRLPLS [En_HC]: 210 nM (5 of 6 replicates; controls 1 of 18).
KISGYLNKESKNTNSVA, EMVNRES, QQYDRLPLS [En_HC]: 45 nM (3 of 6 replicates; controls 0 of 18).
TISQSAHMESHNKNNVA, DLNLRGQ, QQYDRLPLS [En_HC]: 630 pM (4 of 6 replicates; controls 0 of 18).
MISQLTNMGQFAINSVA, QASERSN, QQYDRLPLI [En_Gen]: 38 nM (6 of 6 replicates; controls 0 of 18).
IVSQLMLWGMKAKNSIA, EAELRLN, QQYDRLPLF [En_Gen]: nd (0 of 6 replicates; controls 0 of 18).
KVSIFMLTMDNAWSHIA, NMAEERT, QQYQRLPLS [En_Gibbs]: nd (0 of 6 replicates; controls 0 of 18).
QLAVNRLMEYTMNNAIA, GKTLRVD, QQYARLPLS [En_Gibbs]: 920 pM (6 of 6 replicates; controls 1 of 18).
KISSMSNHQSSVANNVA, ENVTREE, QQYFRLPLE [En_Gen]: 16 nM (6 of 6 replicates; controls 0 of 18).
MIAEMVGYQSRNKNSVA, DNSTRED, QCYDRLPLS [En_HC]: nd (0 of 6 replicates; controls 0 of 18).
KLSSSFLYEDRMKNSVA, QASQRES, QQYHRLPLS [GP_Gibbs]: 3.9 nM (6 of 6 replicates; controls 2 of 18).
KFSQGYMYEQRNKNSVA, NASQRES, QQYHRLPLS [GP_Gibbs]: 780 pM (6 of 6 replicates; controls 2 of 18).
NLRMKELGMSYNANNVA, DSENRIK, QQYYRLPLM [En_Gibbs]: 26 nM (6 of 6 replicates; controls 1 of 18).
SLELFSLEGDKPVNNVA, DEVVKTS, QQYFRLPLH [En_Gibbs]: 18 nM (6 of 6 replicates; controls 0 of 18).
KIGGVTNGISRSKNSVA, EQSTRED, QQYDRLPLL [En_HC]: 7.8 nM (6 of 6 replicates; controls 0 of 18).
ILSDTVMQGSYYRNSVA, QESTRAD, QQYHRLPLS [En_HC]: 4.5 nM (6 of 6 replicates; controls 0 of 18).
SIYDVTGMESRNKNPIA, DVSTRPS, QQYDRLPLS [En_HC]: 150 nM (1 of 6 replicates; controls 1 of 18).

For reference, 3 entries of the list once more:

CDR-L1,CDR-L2,CDR-L3,group,apparent Kd,detected,control signals
KLMWSMQYESRNKNSVA,GASYRES,QQYHRLPLS,GP_Gibbs,2.7 nM,6 of 6,3 of 18
KISSMSNHQSSVANNVA,ENVTREE,QQYFRLPLE,En_Gen,16 nM,6 of 6,0 of 18
QLYEMNYELSGKTHSVA,DNSTRGD,QQYFRLPLD,En_Gen,49 nM,6 of 6,2 of 18

Of ten entries with the parent sequence, four were seen in most replicates (averages 2.2 nM to 240 nM), three in one and three in none, so single entries are noisy. A sequence measured in both rounds can read differently, since the two assays cover different ranges. Three control strains display no target. For all light chain designs, 4% of the pairings with them gave a signal, with a median of 430 nM and one signal in twenty below 38 nM, so weak values seen in few replicates may be background. Also given: how often the same scFv was detected with the empty control strains. The authors' rule: three or more of the six replicates give a measured affinity, fewer mean a poor binder.

The measurements come from Li et al. 2023 (doi:10.1038/s41467-023-39022-2) through the FLAb antibody collection.